The entries are a selection whose mix differs from that of the whole data set. Activity calls are given as the source filed them.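 How the source made its calls: active means inhibition above the mean plus 3 SD, with well images judged a real hit on visual review (cut at about 60% in these data, passing the limit was not always enough); inconclusive means inhibition over the cutoff but images rejected on review; inactive means inhibition not above the cutoff.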

The record followed here is PubChem BioAssay AID1273 (Columbia University Molecular Screening Center, 2008).

A short description of this assay: insulin gene promoter suppression in islet cells – imaging, TRM-6 cells (human fetal islet line), eGFP reporter, cell count, primary screen (AID 1273). The note with it: at 2 µM, hits give high values, reporter expression induced with tamoxifen.
One may read the inhibition as the change of the read-out against control, counted positive when it falls. `CCOc1ncccc1C(=O)NCC1(N2CCOCC2)CCCCC1`: the inhibition was inactive: -63.6%.
With `CC(C)(C)OC(=O)N1CCC(Nc2ccccc2)CC1` the figure was inactive: -6.67%; with `CCC(CO)(C(=O)OC1CN2CCC1CC2)c1ccccc1` (centres undefined), inactive: 30%.
The figure for `CCN1CCC(Nc2cccc(F)c2)CC1` is inactive: 31.2%; for `CN(C)c1ccc(C(=O)NCC2(N3CCCCC3)CCCCC2)cc1` it is inactive: -340%; for `N#Cc1ccc(C(=O)NCC2(N3CCCCC3)CCCCC2)cc1` it is inactive: -25%.
With `c1ccc(CN2CCC(Nc3ccccc3)CC2)cc1` the figure was inactive: 42.9%; with `COc1ccc(C(=O)NCC2(N3CCOCC3)CCCCC2)cc1OC`, inactive: 12.5%; with `N/C(=N\O)c1c(N)no[n+]1[O-]`, inactive: 45.5%.
As for `O=C(OC1CN2CCC1CC2)C1c2ccccc2C=Cc2ccccc21` (centres undefined), the inhibition was inactive: -30.8%.
With `COc1ccc(CN(CCCl)CCCl)cc1Cl` the figure was inactive: 18.8%.
For `CC(C)c1ccc(NC2CCN(C(=O)OC(C)(C)C)CC2)cc1`, the inhibition was inactive: 22.2%.
With `CN1CCC(Nc2cccc(F)c2)CC1` the figure was inactive: -36.7%; with `CN1CCN(CCOC(=O)C(O)(c2ccccc2)c2ccccc2)CC1`, inactive: 7.89%; with `COc1ccc(NC2CCN(C(=O)OC(C)(C)C)CC2)cc1`, inactive: -28.6%.
With `O=C(NCC1(N2CCOCC2)CCCCC1)c1cc(=O)[nH]c2ccccc12` the figure was inactive: 8.7%; with `COc1ccc(C(=O)NCC2(N3CCCCC3)CCCCC2)c(OC)c1OC`, inactive: 0%; with `O=C(NCC1(N2CCOCC2)CCCCC1)c1cc2ccccc2o1`, inactive: 46.4%.
As to `O=C(OC1CN2CCC1CC2)C1c2ccccc2Oc2ccccc21` (centres undefined), the inhibition was inactive: 42.9%.
